Measurements: patent publication US12605653B2, “Anionic switchable hydrophilicity solvents” (QUEEN'S UNIVERSITY AT KINGSTON, priority 2022, dated 2026)

Assay: Evaluation of the switching behaviour of ASHS systems (carboxylic acid/base/water) under air and 1 bar of CO2
Assay type: physicochemical
Conditions: KOH instead of NaOH; 2:1 H2O:acid mass ratio; 1 bar CO2
Procedure: Base solutions were prepared by combining the desired base and water (mass for components measured in an analytical scale) into either a 10 or 25 mL graduated cylinder (containing a magnetic stir bar) depending on the final volume of the mixture obtained. The carboxylic acid (mass measured using an analytical balance prior to addition) being studied was added to the base solution, and the mixture was mixed with the help of a magnetic stir plate. The amount of base and water used were selected based on the acid:base:water ratio desired. Experiments were carried out using stoichiometric and substoichiometric amounts of the base relative to the number of mols of acid added. In addition, the quantity of water used was adjusted based on the acid:water mass ratio desired. A typical experiment would contain 1 g of the carboxylic acid; between 0.4 and 1 mol of base per mol of acid; and a water mass varying from 1 to 9.5 g.
During a typical experiment, CO2 would be added for approximately 2 h at atmospheric pressure. At the end of the 2 h, the sparge tube would be removed, and the number and volume of the phases obtained would be recorded. The pH was once again recorded. For mixtures with only 1 phase, the pH of that phase was recorded. While for mixtures with 2 phases, the pH of the aqueous phase was recorded. […]

SMILES: CCCCC(CC)C(=O)O (stereo not shown) [EHA, 2-ethylhexanoic acid]
- Range of base:acid mole ratios with switchable behaviour: broadens the successful range
